From PMC3199867, “Targeting surface nucleolin with multivalent HB-19 and related Nucant pseudopeptides results in distinct inhibitory mechanisms depending on the malignant tumor cell type” (BMC Cancer, 2011)

Columns and labels:
[1] = system: SW620; experiment: Cell growth / proliferation (cell number); type: cell-based, human
Method: (§1) Human breast (MDA-MB-231, MDA-MB-435 [37]), prostate (LNCaP, from American Type Culture Collection, ATCC, Rockville, MD), and cervical (HeLa) epithelial cancer cells were grown in DMEM-glutamax medium (Gibco Invitrogen, Cergy-Pontoise, France) containing GlutaMAX™, 4.5 g/l glucose and supplemented with 10% heat-inactivated (56°C for 30 min) fetal bovine serum (FBS; Hyclone, Thermo Fisher Scientific, Inc). Human SW480 cells are derived from a grade 3-4 colon carcinoma, while the highly metastatic counterpart SW620 is established from the lymph node of a person. Both SW480 and SW620 cells (obtained from Francis Raul, IRCAD) are highly tumorigenic in nude mice. They were cultured in D-MEM, 10% FCS. The murine melanoma TIII cell line was obtained from Armelle Prévost-Blondel. Murine T29 lymphoma cells, obtained from Philippe Kastner (CNRS, Strasbourg), have been established from Ik^L/L tumors from mice carrying a hypomorphic mutation (Ik^L/L) in the Ikaros gene encoding a transcription factor that regulates lymphocyte differentiation, and acts also as a tumor suppressor in T lymphocytes. The T29 cells were cultured in RPMI medium containing 25 mM Hepes pH 7.6, 1 mM sodium pyruvate, and 10% FCS. Human leukemia cell lines, Jurkat (acute T cell leukemia), HuT 78 (cutaneous T lymphocyte), RAJI (Burkitt lymphoma), and HL60 (promyelocytic leukemia) were cultured in RPMI-1640 medium (Gibco) containing GlutaMAX™, and supplemented with 10% heat-inactivated FBS as described before. The wild-type Chinese hamster ovary cell line (CHO K1) was purchased from American Type Culture Collection (ATCC; Rockville, MD). The CHO LRP1-null cell line (CHO-13-5-1) was kindly provided by D. Strickland [47]. They were cultured in Ham's F12K medium. All cells were cultured with 10% (v/v) heat inactivated (56°C, 30 min) fetal bovine serum (FBS) (Roche Molecular Biochemicals, Indianapolis, IN) and 50 international units/mL penicillin-streptomycin (Invitrogen). Cell death was monitored conveniently by uptake of the trypan blue dye due to plasma membrane permeability of dying and/or dead cells.

[2] = system: SW480; experiment: Cell growth / proliferation (cell number); type: cell-based, human
Method: as §1

[3] = system: surface nucleolin; experiment: Down regulation of surface nucleolin in HeLa CD4+ cells, immunoblotting; type: cell-based, human; conditions: 7 hours
Method: Nucleolin was analyzed by immunoblotting using either the monoclonal antibody (mAb) D3 against nucleolin (kindly provided by Dr. J. S. Deng), or rabbit polyclonal antibodies directed against a synthetic peptide corresponding to the first 26 ([…]) and the last 16 (GGGGDHKPQGKKTKFE) amino acid residues of human nucleolin as described before. […] The reacting bands were visualized with an enhanced chemiluminescence (ECL) reagent and by exposure to autoradiography film (Amersham Biosciences). In some experiments, the presence of actin was monitored as a control with mAb anti-actin A-4700 (Sigma). […]
Figure 2 HB-19 and related Nucant pseudopeptides antagonize surface nucleolin and trigger its down regulation. […] At 48 h post-infection, the β-galactosidase activity was measured in cell extracts directly to monitor HIV entry (Methods). The abscissa gives % Activity of surface nucleolin calculated from the optical density measurements at 570 nm. […] Cytoplasmic (containing cytoplasmic as well as surface nucleolin) and nuclear extracts were analyzed by immunoblotting using mAb D3 as described (Methods)(panels Surface/cytoplasmic NCL, Nuclear NCL). […]

[4] = system: melanoma TIII cell; experiment: Cell adhesion; type: cell-based, murine; conditions: after 5 hours of cell seeding, vs untreated control, mean of at least 2 independent experiments
[5] = system: MDA-MB 435 cells; experiment: Contact inhibition (immunofluorescence microscopy); type: cell-based, human; conditions: MDA-MB 435, 20 μM, 4 days
Method: MDA-MB 435 cells plated in eight-well glass slides were cultured for 4 days in the absence (Control) or presence of N6L (20 µM).

CC(=O)N[C@@H](CCCCNC(=O)[C@H](CCCNC(=N)N)NC(=O)[C@@H]1CCCN1C[C@@H](N)CCCCN)C(=O)NC(C)(C)C(=O)NCC(=O)N[C@@H](CCCCNC(=O)[C@H](CCCNC(=N)N)NC(=O)[C@@H]1CCCN1C[C@@H](N)CCCCN)C(=O)NC(C)(C)C(=O)NCC(=O)N[C@@H](CCCCNC(=O)[C@H](CCCNC(=N)N)NC(=O)[C@@H]1CCCN1C[C@@H](N)CCCCN)C(=O)NC(C)(C)C(=O)NCC(=O)N[C@@H](CCCCNC(=O)[C@H](CCCNC(=N)N)NC(=O)[C@@H]1CCCN1C[C@@H](N)CCCCN)C(=O)NC(C)(C)C(=O)NCC(=O)N[C@@H](CCCCNC(=O)[C@H](CCCNC(=N)N)NC(=O)[C@@H]1CCCN1C[C@@H](N)CCCCN)C(=O)NC(C)(C)C(=O)NCC(=O)N[C@@H](CCCCNC(=O)[C@H](CCCNC(=N)N)NC(=O)[C@@H]1CCCN1C[C@@H](N)CCCCN)C(=O)NC(C)(C)C(=O)NCC(N)=O [Nucant N6L]
Number of cells ([1]; SW620, 10 μM added once 5 hours after seeding (20,000 cells/ml, 2 ml), counted seven days after seeding, control 1,800,000): 450,000 | % inhibition ([1]; SW620, 10 μM added once 5 hours after seeding, counted seven days after seeding): 75% | % Growth inhibition After 3 days ([1]; SW620, N6L 10 μM, viable cell number vs untreated control, mean of at least 2 independent experiments): 55% | Number of cells ([2]; SW480, 10 μM added once 5 hours after seeding (20,000 cells/ml, 2 ml), counted seven days after seeding, control 1,500,000): 800,000 | % inhibition ([2]; SW480, 10 μM added once 5 hours after seeding, counted seven days after seeding): 47% | % Growth inhibition After 3 days ([2]; SW480, N6L 10 μM, viable cell number vs untreated control, mean of at least 2 independent experiments): 35% | reduction of surface nucleolin level ([3]; 1 μM, band intensity by NIH image): more than 80% | surface nucleolin level ([3]; 2 μM): no longer detectable | % Inhibition of cell Adhesion ([4]; 2.5 μM): 39% | % Inhibition of cell Adhesion ([4]; 5 μM): 49% | % Inhibition of cell Adhesion ([4]; 10 μM): 65% | % Inhibition of cell Adhesion ([4]; 20 μM): 72% | contact inhibition [5]: restoration of contact inhibition
